Reference: article PMC5679017

Chains of the proteins cited; added tags and fusions are not shown. Lines headed by an entry give the natural chain unless they say otherwise; changes in a name come on top.
UniProt Q01727: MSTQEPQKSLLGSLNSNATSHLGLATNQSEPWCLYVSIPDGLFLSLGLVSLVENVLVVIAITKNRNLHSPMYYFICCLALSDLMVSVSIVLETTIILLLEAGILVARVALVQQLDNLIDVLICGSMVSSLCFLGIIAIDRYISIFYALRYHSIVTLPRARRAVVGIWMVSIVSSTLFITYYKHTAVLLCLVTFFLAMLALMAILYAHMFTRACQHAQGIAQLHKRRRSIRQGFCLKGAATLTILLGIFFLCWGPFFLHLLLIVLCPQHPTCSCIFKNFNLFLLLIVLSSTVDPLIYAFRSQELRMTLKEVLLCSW
UniProt P56450, whole entry: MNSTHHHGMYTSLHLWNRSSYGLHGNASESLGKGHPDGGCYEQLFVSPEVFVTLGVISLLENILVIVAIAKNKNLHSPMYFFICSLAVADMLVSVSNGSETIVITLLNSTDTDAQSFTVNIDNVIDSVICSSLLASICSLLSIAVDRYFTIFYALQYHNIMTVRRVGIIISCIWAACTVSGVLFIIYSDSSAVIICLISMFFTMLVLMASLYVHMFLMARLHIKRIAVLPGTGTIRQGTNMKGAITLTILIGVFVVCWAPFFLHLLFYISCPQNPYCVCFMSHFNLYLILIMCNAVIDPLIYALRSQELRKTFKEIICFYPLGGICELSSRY

What was measured:
[1] = biological target: mouse melanocortin-1 receptor (mouse) (UniProt Q01727); experiment: radioligand binding
[2] = biological target: mouse melanocortin-4 receptor (mouse) (UniProt P56450); experiment: radioligand binding

For Ac-His-DPhe-Arg-Trp-NH2 (peptide), the IC50 [1] was 388 nM and the IC50 [2] was 214 nM.
